Results on six compounds are retold here after PMC5894102 (Journal of medicinal chemistry, 2017).

Like-named read-outs stand apart in the source and are kept apart here.

For data set [1], the system named is A673 cells. As to the kind of experiment: cells. The following applies: Homo sapiens.
The nature of data set [2]: in vitro. The following applies: human, MiaPaCa-2 cells.
The nature of data set [3]: in vitro. The following applies: human, A673 cells.
In data set [4] the test system is A673 cells. The following applies: Figure 5D.
In data set [5] the test system is MiaPaCa-2 cells. The following applies: Figure 5C.
In data set [6] the test system is MiaPaCa-2 cells. Put plainly: cells. The following applies: Homo sapiens, MIA PaCa-2, 2 h, read-out: MiaPaCa-2 cells Lactate inh. IC50 ± SD.
[7] abbreviates: A673, read-out: inhibition of lactate production IC50.

A word on the IC50: it is the concentration that gives 50% inhibition. For `NS(=O)(=O)c1ccc(Oc2c(-c3cccc(-c4ccccc4)c3)nn(-c3nc(C(=O)O)cs3)c2C2CC2)cc1` [Analog 60], the concentration for half-maximal inhibition (IC50) with A673 cells [1] (setting [7]) was less than 4 µM.
Take `Nc1c(Cc2ccc(S(N)(=O)=O)cc2)c(-c2cccc(-c3ccccc3)c2)nn1-c1nc(C(=O)O)cs1` [Analog 56]: the IC50 at 48 h in “in vitro [2]” and in the data set “in vitro [3]” was more than 57 µM in each case.
Turning to `NS(=O)(=O)c1ccc(Cc2c(-c3cccc(-c4ccccc4)c3)nn(-c3nc(C(=O)O)cs3)c2CC2CC2)cc1` [Analog 63], the IC50 in the data set on A673 cells [1] (A673, 2 h, read-out: A673 cells Lactate inh. IC50 ± SD) was 0.517 ± 0.088 µM; in the data set on A673 cells [1] (setting [7]), less than 4 µM. Moreover, the “long-term growth inhibition activity (AUC analysis)” value with A673 cells [4] and in the data set on MiaPaCa-2 cells [5] was “single digit μM” throughout.
Turning to `NS(=O)(=O)c1ccc(Cc2cn(-c3nc(C(=O)O)cs3)nc2-c2ccccc2)cc1` [Analog 43], the IC50 at 48 h in the data set “in vitro [2]” and in “in vitro [3]” was more than 57 µM each time.
`NS(=O)(=O)c1ccc(Cc2c(-c3ccccc3)nn(-c3nc(C(=O)O)cs3)c2C2CC2)cc1` [Analog 58]: the IC50 at 48 h in the data set “in vitro [2]” and in the data set “in vitro [3]” was more than 57 µM in each case.
Consider `O=C1N[C@](c2ccc(N3CCOCC3)cc2)(c2ccsc2)CC(O)=C1Sc1ccccc1Cl` [Analog 3], for which the IC50 with MiaPaCa-2 cells [6] was 0.877 ± 0.059 µM. Besides, the “long-term growth inhibition activity (AUC analysis)” value in the data set on A673 cells [4] and with MiaPaCa-2 cells [5] was “single digit μM” each time.
